{
  "source": "paper PMC11109934",
  "about": "(RSC Medicinal Chemistry, 2024)",
  "test_system": "BxPC3 cells",
  "test": "xCELLigence real time monitoring of cell proliferation, BxPC3",
  "assay_type": "cell-based, human",
  "conditions": "16 μM",
  "data": [
    {"smiles": "Oc1cccc2ccccc12", "note": "[1-naphthol, 1-Naphthol]", "values": [
      {"measurement": "activity in real-time xCELLigence experiments", "result": "notable activity"}
    ]}
  ]
}
